Test results: patent US4432983A (Research Corporation, priority 1981, dated 1984)

Sequences of proteins named here, by UniProt entry; tags and fusion partners are left off.
UniProt P47747, whole entry: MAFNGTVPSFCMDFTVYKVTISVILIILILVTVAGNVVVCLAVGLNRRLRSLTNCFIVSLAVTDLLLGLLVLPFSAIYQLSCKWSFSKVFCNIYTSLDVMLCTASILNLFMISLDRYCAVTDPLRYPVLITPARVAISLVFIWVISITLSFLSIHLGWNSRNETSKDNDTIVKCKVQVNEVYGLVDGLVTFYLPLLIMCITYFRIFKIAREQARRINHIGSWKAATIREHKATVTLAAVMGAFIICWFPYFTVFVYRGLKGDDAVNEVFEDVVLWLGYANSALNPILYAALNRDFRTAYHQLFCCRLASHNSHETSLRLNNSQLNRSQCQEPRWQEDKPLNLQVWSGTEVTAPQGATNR

Molecular target: T1, histamine H2-receptor (isolated guinea pig right atrium) (Cavia porcellus, UniProt P47747)
T1 construct: All other tissue was carefully trimmed away, leaving only the right atrium; from tissue; host or cells: isolated right atrium of guinea pig (Hartley strain) heart
Experiment: Histamine H2-receptor antagonism: histamine-induced chronotropic response of isolated guinea pig right atrium
Method: Guinea pigs (Hartley strain) of either sex (400-700 g) were allowed at least two weeks acclimation period. The animals were housed two per cage in wire-meshed bottom stainless steel cages in animal quarters maintained on a 12 hour light:12 hour dark cycle with ambient temperature of approximately 24° C. Food (Ralston-Purina guinea pig chow #5025) and water were provided ad libitum.
The animals were stunned by a blow to the head and the heart was quickly removed and placed in Tyrode's solution (composition in g/L of distilled water: NaCl, 8.00; KCl, 0.20; MgSO4.7 H2 O, 0.10; CaCl2, 0.20; NaH2 PO4, 0.05; NaHCO3, 1.00; glucose, 1.00) at room temperature. All other tissue was carefully trimmed away, leaving only the right atrium. […]
A straight line was fitted to the data points of each determination within each group by linear regression analysis. The slope and the ED50 were calculated from the regression line, the slopes and ED50 values of each group were averaged, and the standard deviations were calculated. […] The 95 percent confidence limits were calculated using the following formula: confidence limits=±ts√N where t=Student's t value, s=standard deviation, and N=number of determinations.

Work on `CN/C(=N/CCSCc1nc[nH]c1C)NC#N` [cimetidine, reference compound] yielded a Kb of 200 nM.
